GLP1R cytotox – cytotoxicity in counter-screen for GLP-1R inverse agonists; HEK293 cAMP-luciferase reporter cells, luminescence, 24 h; Potency, µM (series often up to 38.3 µM), inactives show top-dose activity change, negative = inhibition, hits mostly inhibitors; actives 0.13% (n = 410,000); AID 624418;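 also: loss of luciferase light is scored as toxicity; potency is read from the fitted curve at half-maximal effect; % is scaled to controls: 0 for no effect and ±100 for the full control effect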
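Quantitative HTS format, 1536 wells, 200 cells/uL seeded. Compounds: 23 nL, 24 h, 37 °C. Detection: luciferase reagent, luminescence at 12 min RT; decreased signal taken as cytotoxic.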
miR-21 FLuc – miR-21 reporter, rising signal; Potency, µM (titrated, usually from 38.3 µM), without a hit: at the highest dose reporter change, positive = more light; AID 2288; 340,000 tested, under 10 active; HeLa miR-21 FLuc reporter, luciferase, 48 h; active = well fitted rising curve with a large enough effect; inconclusive = small, poorly fitted or top-dose-only effect; inactive = no such curve, though single readings can be large or run the other way;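 note: % of control where 0% means no effect; miR-21 action dims this reporter so a rising signal means less miR-21 action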
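HeLa cells endogenously expressing miR-21, stably carrying CMV-driven firefly luciferase with a downstream miR-21 binding site, 2000 cells/well. Titrations up to approximately 40 uM, 48 hours; luciferase luminescence read.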
GLP-1R agonist – GLP-1 receptor (human) agonism; P43220; HEK293 GLP-1R CRE-luciferase, luminescence, 4-6 h; cells express a hypersensitive GLP-1R form; actives 0.007% (n = 380,000); Potency, µM (top dose mostly 45.6 µM), for the others: at the highest dose activation, actives largely listed as activators; also: potency is read from the fitted curve at half-maximal effect; % of control where 0% means no effect
Pin1 inhibitor – human Pin1 inhibition; Pin1 FP peptide displacement, HiFluor488, 10 min; Potency, µM (series often up to 115 µM), inactives show top-dose activity, negative = inhibition, most hits filed as inhibitors; actives 0.009% (n = 390,000); active = well fitted inhibition curve with a large enough effect in the polarisation, with a control signal flat, not every such curve was filed as active; inconclusive = small, poorly fitted or top-dose-only effect, or effect the other way, or a change in a side signal; inactive = no such curve, though single readings can be large or run the other way; the % refers to the polarisation; also: potency is read from the fitted curve at half-maximal effect; % is scaled to controls: 0 for no effect and ±100 for the full control effect
GLP-1R inv ag – inverse agonists of human GLP-1 receptor; P43220; HEK293 GLP-1R CRE-luciferase, luminescence, 24 h; GLP-1R form is constitutively active; Potency, µM (series often up to 38.3 µM), for inactives: at the top dose activity change, negative = inhibition, hits mostly inhibitors; actives 1.6% (n = 410,000); AID 624417; also: potency is read from the fitted curve at half-maximal effect; % is scaled to controls: 0 for no effect and ±100 for the full control effect; nearly all actives have a fitted effect of over 55% in size
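Luminescence readout: a drop in cAMP-driven luciferase signal flags inverse agonism at a constitutively active GLP-1R stably expressed in HEK293. Compound exposure lasted 24 hr at 37 deg C, 5% CO2.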
PTHR1 agonist – PTHR1 (human) receptor agonism; Q03431; Potency, µM (top dose mostly 115 µM), for the others: top-dose activation, most hits filed as activators; actives 0.075% (n = 410,000); HEK293 GP2 PTHR1 cells, GloSensor cAMP luminescence, 1 h; also: potency is read from the fitted curve at half-maximal effect; nearly all actives have a fitted effect of over 55% in size
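HEK-293-derived GP2 cells expressing PTHR1 and a GloSensor cAMP reporter, 3,000/well, plated overnight, given luciferin plus IBMX (each 0.5 mM as added) for 1 h at 37 °C, then compound for 1 h at 37 °C. Luminescence was read after 15 min at room temperature.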
Starred values were filed as active, the others as inactive; [ ] = remark or other dose. A selection: hits, their analogues and other compounds. The true share with any hit is near 1.7%. Unless noted, calls follow the shape of the dose curve; as a rule, active = well fitted curve in the direction sought with a large enough effect; inconclusive = small, poorly fitted or top-dose-only effect, or another doubt; inactive = no such curve, though single readings can be large; an effect the other way counts as inactive or inconclusive.

Results for O=C(COc1ccc(Cl)cc1)N(c1ccccc1Cl)C1CN2CCC1CC2 (stereo not drawn) ?
GLP1R cytotox: inconclusive; miR-21 FLuc: 6%; GLP-1R agonist: 1%; Pin1 inhibitor: -11%; GLP-1R inv ag: 2.5µM*; PTHR1 agonist: -27%

Results for O=C(COc1ccc(Cl)cc1)N(c1ccc(Cl)cc1)C1CN2CCC1CC2 (stereo not drawn) ?
GLP1R cytotox: inconclusive; miR-21 FLuc: 6%; GLP-1R agonist: 3%; Pin1 inhibitor: -5%; GLP-1R inv ag: 8.9µM*; PTHR1 agonist: inactive

How did [Cl-].[Cl-].[Hg+2] do in these assays?
GLP-1R agonist: -8%

Results for CN(C)c1nc(OCCNC(=O)COc2ccc(Cl)cc2Cl)nc(N2CCCCC2)n1 ?
GLP1R cytotox: -12%; miR-21 FLuc: -5%; GLP-1R agonist: -6%; Pin1 inhibitor: 4%; GLP-1R inv ag: 3%; PTHR1 agonist: inactive

How did Cc1ccccc1C(c1ncccc1C)N(C)C(=O)C1CCN(CCOc2ccc(Cl)cc2Cl)CC1 (stereo not drawn) do in these assays?
GLP1R cytotox: 10µM*; GLP-1R agonist: -11%; GLP-1R inv ag: inconclusive; PTHR1 agonist: inactive

Results for C=CCC1(C(C)CCC)C(=O)NC(=O)NC1=O (stereo not drawn) ?
GLP-1R agonist: 1%[96 µM]

Results for O=c1c2ccccc2nc(N2CCCC2)n1-c1ccccc1 ?
GLP1R cytotox: -9%; miR-21 FLuc: -2%; GLP-1R agonist: 15%; Pin1 inhibitor: 0%; GLP-1R inv ag: 3.2µM*; PTHR1 agonist: -19%

Results for CCCc1nc2ccccc2c(=O)n1-c1ccc(O)cc1 ?
GLP1R cytotox: 0%; miR-21 FLuc: -13%; GLP-1R agonist: 26%; Pin1 inhibitor: -9%; GLP-1R inv ag: inconclusive; PTHR1 agonist: inactive

How did O=c1c2ccccc2nc(-c2ccccc2)n1-c1ccncc1 do in these assays?
GLP1R cytotox: 13%; miR-21 FLuc: 2%; GLP-1R agonist: 12%; Pin1 inhibitor: 1%; GLP-1R inv ag: 0%; PTHR1 agonist: inconclusive

Results for O=c1c2ccccc2nc(-c2ccccc2)n1-c1cccc(O)c1 ?
GLP1R cytotox: -12%; miR-21 FLuc: 9%; GLP-1R agonist: -1%; Pin1 inhibitor: -11%; GLP-1R inv ag: 1µM*; PTHR1 agonist: inactive

How did O=c1c2ccccc2nc(-c2ccccc2F)n1-c1ccccc1 do in these assays?
GLP1R cytotox: -13%; miR-21 FLuc: 4%; GLP-1R agonist: 9%; Pin1 inhibitor: -7%; GLP-1R inv ag: inconclusive; PTHR1 agonist: inactive

How did CCCCc1nc2ccccc2c(=O)n1-c1ccc(O)cc1 do in these assays?
GLP1R cytotox: -8%; miR-21 FLuc: -2%; GLP-1R agonist: 27%; Pin1 inhibitor: -1%; GLP-1R inv ag: 2.2µM*; PTHR1 agonist: inactive

How did O=c1c2ccccc2nc(-c2ccccc2)n1-c1ccccc1 do in these assays?
GLP1R cytotox: 2%; miR-21 FLuc: 13%; GLP-1R agonist: 14%; Pin1 inhibitor: -3%; GLP-1R inv ag: 5µM*; PTHR1 agonist: inactive

Results for C[C@@H]1O[C@@H](O[C@H]2C[C@@H](O)[C@]3(CO)[C@@H]4C(CC[C@]3(O)C2)[C@@]2(O)CC[C@H](C3COC(=O)C3)[C@@]2(C)C[C@H]4O)[C@H](O)[C@H](O)[C@H]1O (stereo partly drawn) ?
GLP1R cytotox: inconclusive; GLP-1R agonist: -10%; Pin1 inhibitor: 2%; GLP-1R inv ag: 1µM*; PTHR1 agonist: -36%

How did Cc1ccc(C(C)C)c(OCC(=O)Nc2cc(-c3nc4ccccc4[nH]3)ccc2C)c1 do in these assays?
GLP1R cytotox: inconclusive; miR-21 FLuc: -7%; Pin1 inhibitor: 2%; GLP-1R inv ag: inconclusive; PTHR1 agonist: -41%

How did Cc1ccc(NC(=O)c2cc(-c3cc(Cl)ccc3C)n[nH]2)cc1NS(C)(=O)=O do in these assays?
GLP1R cytotox: -17%; GLP-1R agonist: 7%; GLP-1R inv ag: inconclusive; PTHR1 agonist: -55%

What do the screens show for `COC(=O)c1cn(Cc2ccc(F)cc2)c2ccccc12`?
GLP1R cytotox: 2%; GLP-1R agonist: 16%; GLP-1R inv ag: 11µM*; PTHR1 agonist: -47%

Results for CC(=O)c1cn(Cc2ccc(F)cc2)c2ccccc12 ?
GLP1R cytotox: -1%; miR-21 FLuc: 14%; GLP-1R agonist: 1%; Pin1 inhibitor: -2%; GLP-1R inv ag: inconclusive; PTHR1 agonist: -80%

Results for COc1ccc(CNC(=O)Cn2c(=O)nc(-c3ccccc3F)c3cc(Cl)ccc32)cc1 ?
GLP1R cytotox: 5%; miR-21 FLuc: -1%; Pin1 inhibitor: 13%; GLP-1R inv ag: -12%; PTHR1 agonist: -42%

Results for CCCOc1ccccc1NP(=O)(Oc1ccccc1)Oc1ccccc1 ?
GLP1R cytotox: 11%; miR-21 FLuc: -4%; GLP-1R agonist: -7%; Pin1 inhibitor: -2%; GLP-1R inv ag: inconclusive; PTHR1 agonist: inactive

What do the screens show for `O=P(Nc1ccccc1)(Oc1ccccc1)Oc1ccccc1`?
GLP1R cytotox: -15%; miR-21 FLuc: 14%; GLP-1R agonist: 8%; Pin1 inhibitor: 3%; GLP-1R inv ag: inconclusive; PTHR1 agonist: -10%

What do the screens show for `COc1cccc(OP(=O)(Nc2ccccc2)Oc2cccc(OC)c2)c1`?
GLP1R cytotox: inconclusive; miR-21 FLuc: 21%; GLP-1R agonist: 7%; Pin1 inhibitor: 6%; GLP-1R inv ag: 10µM*; PTHR1 agonist: -31%

What do the screens show for `Cc1cccc(NP(=O)(Oc2ccccc2)Oc2ccccc2)c1C`?
GLP1R cytotox: -13%; miR-21 FLuc: 28%; GLP-1R agonist: 5%; Pin1 inhibitor: 0%; GLP-1R inv ag: 10µM*; PTHR1 agonist: -39%

Results for COc1cc(CC(C)N)c(OC)cc1Br (stereo not drawn) ?
GLP-1R agonist: -4%

Results for Cc1ccc(NC(=O)c2cc(S(=O)(=O)N3CCOCC3)c(Cl)cc2Cl)cc1 ?
GLP1R cytotox: -18%; miR-21 FLuc: inconclusive; Pin1 inhibitor: 0%; GLP-1R inv ag: -25%; PTHR1 agonist: -46%

How did CCC(C)NCCOc1ccc(C(C)(C)c2ccccc2)cc1 (stereo not drawn) do in these assays?
GLP1R cytotox: inconclusive; miR-21 FLuc: inconclusive; GLP-1R agonist: 9%; Pin1 inhibitor: 1%; GLP-1R inv ag: 5µM*; PTHR1 agonist: -10%

Sorted by SMILES length (falling): 3 of the compounds above
What do the screens show for `Cc1cccc(NP(=O)(Oc2ccccc2)Oc2ccccc2)c1C`?
GLP1R cytotox: -13%; miR-21 FLuc: 28%; GLP-1R agonist: 5%; Pin1 inhibitor: 0%; GLP-1R inv ag: 10µM*; PTHR1 agonist: -39%

How did CCC(C)NCCOc1ccc(C(C)(C)c2ccccc2)cc1 (stereo not drawn) do in these assays?
GLP1R cytotox: inconclusive; miR-21 FLuc: inconclusive; GLP-1R agonist: 9%; Pin1 inhibitor: 1%; GLP-1R inv ag: 5µM*; PTHR1 agonist: -10%

Results for COc1cc(CC(C)N)c(OC)cc1Br (stereo not drawn) ?
GLP-1R agonist: -4%
